ChEMBL document CHEMBL1129637, “Conformationally defined 6-s-trans-retinoic acid analogs. 3. Structure-activity relationships for nuclear receptor binding, transcriptional activity, and cancer chemopreventive activity” (J Med Chem, 1996)
pIC50: −log10 of the molar value.

Amino acid sequences for entries named in this document (tags omitted).
UniProt P11416, whole entry: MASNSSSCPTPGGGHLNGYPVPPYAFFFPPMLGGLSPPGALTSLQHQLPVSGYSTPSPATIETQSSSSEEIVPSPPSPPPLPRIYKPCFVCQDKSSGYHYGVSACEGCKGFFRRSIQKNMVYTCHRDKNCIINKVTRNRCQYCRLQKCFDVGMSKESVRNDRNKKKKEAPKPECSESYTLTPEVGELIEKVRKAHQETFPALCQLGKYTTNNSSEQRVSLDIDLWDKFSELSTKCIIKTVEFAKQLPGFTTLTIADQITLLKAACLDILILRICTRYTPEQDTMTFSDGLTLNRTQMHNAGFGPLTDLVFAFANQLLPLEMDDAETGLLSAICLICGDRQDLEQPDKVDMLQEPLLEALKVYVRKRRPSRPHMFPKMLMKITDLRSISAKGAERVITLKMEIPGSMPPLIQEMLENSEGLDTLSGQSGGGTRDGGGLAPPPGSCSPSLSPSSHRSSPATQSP

Molecular target: Retinoic acid receptor alpha (Mus musculus, UniProt P11416)
Experiment: Inhibition of [3H]ATRA binding to mouse Retinoic acid receptor RAR alpha
Procedure, shortened: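 Radioligand competition assay for RARα, measuring inhibition of [3H]-(all-E)-RA binding by unlabeled retinoid over a dose series to derive IC50.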

pIC50: < 6.00
Compound: CCC1=C(C(C)C)/C(=C/C(C)=C\C=C\C(C)=C\C(=O)O)CCC1
